Data from US7572606B1 (Nereus Pharmaceuticals, Inc., priority 2005, dated 2009).

Experiments:
SR = experiment: NCI 60 cell line screen, sulforhodamine B, 48 h; type: cell-based; conditions: Homo sapiens, read-out: Log10 LC50 (converted)
MALME-3M = experiment: NCI 60 cell line screen, sulforhodamine B, 48 h; type: cell-based; conditions: Homo sapiens, read-out: Log10 LC50 (converted)
[1] = target: chymotrypsin-like activity of rabbit muscle 20S proteasome (Oryctolagus cuniculus, UniProt G1T4Q9); experiment: In vitro inhibition of 20S proteasome, suc-LLVY-AMC; conditions: chymotrypsin-like activity of purified 20S proteasomes

C[C@@]12OC(=O)[C@]1([C@@H](O)[C@@H]1C=CCCC1)NC(=O)[C@@H]2CCCl [Salinosporamide A]
CC50 (SR): 64.6 µM | CC50 (MALME-3M): 64.6 µM | IC50 [1]: 0.002 µM
